Test results: US5028411A, “Pharmaceutical compositions” (priority 1984, dated 1991)

Test: Ksol, ability to solubilise iron(III) hydroxide
Assay type: physicochemical
Settings: must be >0 to solubilise iron(III) hydroxide
From the text: In order to solubilise iron(III) hydroxide, log Ksol must be greater than 0.

**Q.** Which “log Ksol” value does the source give for Cc1occc(=O)c1O [maltol, 3-hydroxy-2-methyl-4-pyrone] here?
**A.** 8.0
